{"source": "patent US20180338982A1", "about": "“Cooperative Medication Combination Systems” (priority 2017, published 2018)", "origin": "cited, not measured here", "settings": "Table 1, components of \"Syncpress\" (hypertension)", "data": [{"smiles": "Cl.Clc1cccc(Cl)c1NC1=NCCN1", "note": "[Clonidine, Clonidine Hydrochloride]", "values": [{"measurement": "Half-life", "result": 12, "unit": "h"}]}]}
